Results reported in paper PMC3604701.

Target: CoREST^286–482 (linker region and SANT2 domain)
Test: SPR

LSD1 (residues 151–852), lysine-specific demethylase 1 (from UniProt O60341 151-852) (domain or fragment)
Kd: 1.4 nM | koff: 7.78e-05 s⁻¹ | kon: 56300 M⁻¹ s⁻¹
